Experimental data published in publication PMC4747407 (Oncotarget, 2015).

Sequences of proteins named here, by UniProt entry; tags and fusion partners are left off. A change or cut given only in a name is not applied to a line headed by its entry.
UniProt O88554: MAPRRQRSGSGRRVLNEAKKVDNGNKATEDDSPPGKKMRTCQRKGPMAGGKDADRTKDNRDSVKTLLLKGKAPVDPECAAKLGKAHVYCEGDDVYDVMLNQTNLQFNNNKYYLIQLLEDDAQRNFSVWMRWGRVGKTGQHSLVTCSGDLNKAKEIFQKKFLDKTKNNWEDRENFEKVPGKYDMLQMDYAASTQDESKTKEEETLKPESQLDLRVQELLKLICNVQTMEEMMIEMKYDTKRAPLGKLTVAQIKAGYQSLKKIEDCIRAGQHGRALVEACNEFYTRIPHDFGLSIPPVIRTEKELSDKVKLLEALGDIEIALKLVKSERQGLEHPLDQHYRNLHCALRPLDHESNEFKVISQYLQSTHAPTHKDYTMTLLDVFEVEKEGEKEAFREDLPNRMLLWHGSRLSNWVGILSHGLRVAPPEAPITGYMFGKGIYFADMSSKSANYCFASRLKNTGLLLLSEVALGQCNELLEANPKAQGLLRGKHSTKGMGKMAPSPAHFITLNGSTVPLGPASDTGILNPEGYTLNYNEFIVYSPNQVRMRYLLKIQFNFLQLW

Molecular target: mouse recombinant PARP2 (Mus musculus, UniProt O88554)
Test: biochemical

Question: With `O=c1[nH]nc2c3c(cccc13)N=C(CN1Cc3ccccc3C1)N2` [E7449, 8-(isoindolin-2-ylmethyl)-2,9-dihydro-3H-pyridazino[3,4,5-de]quinazolin-3-one] as the compound, how does the IC50 read?
Answer: 1.2 nM
